This passage reports IC50 results from ChEMBL document CHEMBL1133361, “Synthesis and biological activity of peptidyl aldehyde urokinase inhibitors” (Bioorg Med Chem Lett, 2000).

The test concerns the target Urokinase-type plasminogen activator (Homo sapiens, UniProt P00749). Description: The compound was tested in vitro for its inhibitory activity against human urokinase enzyme, activity expressed as IC50.

On to `C[C@H](NC(=O)[C@@H](CO)NC(=O)OCc1ccccc1)C(=O)N[C@H]1CCCN(C(=N)N)C1O` (stereo partly drawn), for which half-maximal inhibition (IC50) was put at 19 nM. Consider `C[C@H](NC(=O)[C@@H](CO)NS(=O)(=O)c1ccccc1)C(=O)N[C@H]1CCCN(C(=N)N)C1O` (stereo partly drawn), for which the midpoint of inhibition, the IC50, lay at 10.3 nM.

As for `N=C(N)N1CCCC(NC(=O)[C@H]2CCCN2C(=O)C(CO)NC(=O)OCc2ccccc2)C1O` (stereo partly drawn), the concentration for half-maximal inhibition (IC50) (in general, the concentration at which inhibition is half-maximal) is 12.4 nM. The IC50 values of the last two compounds are within 1.5-fold of each other.
